Source: patent US8030341B2, “Dmt-derivative compounds and related compositions and methods of use” (priority 2005, dated 2011)

Chains of the proteins cited; added tags and fusions are not shown. Lines headed by an entry give the natural chain unless they say otherwise; changes in a name come on top.
UniProt P32300, whole entry: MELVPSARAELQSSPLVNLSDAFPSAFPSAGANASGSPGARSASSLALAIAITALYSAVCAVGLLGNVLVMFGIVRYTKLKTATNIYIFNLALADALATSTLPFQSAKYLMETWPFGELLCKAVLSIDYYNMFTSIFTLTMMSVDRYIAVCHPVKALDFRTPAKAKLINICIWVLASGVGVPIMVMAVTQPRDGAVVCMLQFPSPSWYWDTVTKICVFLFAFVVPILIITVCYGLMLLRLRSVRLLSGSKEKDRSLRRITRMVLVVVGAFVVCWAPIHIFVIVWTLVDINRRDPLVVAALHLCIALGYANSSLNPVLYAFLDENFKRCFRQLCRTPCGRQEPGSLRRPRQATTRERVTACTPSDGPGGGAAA

Biological target: T1, δ-opioid receptor (Mus musculus, UniProt P32300)
T1 construct: from tissue; host or cells: isolated mouse vas deferens
Assay: mouse vas deferens (MVD) bioassay
Type: cell-based
Details: Table 2; versus deltorphin II as agonist
Text: Bioorg. Med. Chem., 11: 675-678 (2003). The isolated tissues were suspended in organ baths containing balanced salt solutions in a physiological buffer, pH 7.5. […]

Compound: Cc1cc(O)cc(C)c1C[C@H](N)C(=O)N1Cc2ccccc2C[C@H]1C(=O)O [H-Dmt-Tic-OH, reference compound]
- MVD Antagonist pA2: 8.48
